One assay has as its target T1, VEGFR-2 (Homo sapiens, UniProt P35968).
T1 construct: tumor cell lines naturally expressing high levels of EGFR (A431), VEGFR-2 (U251); endogenous in cells; host or cells: U251
The experiment in a line: Phosphotyrosine ELISA cytoblot, VEGFR-2 (U251 cells). Format: cell-based. The following applies: VEGF stimulation, read-out: VEGFR-2 kinase inhibition. (ELISA stands for enzyme-linked immunosorbent assay.)

The chains behind the UniProt entries cited, without tags or fusion partners. Residues count along the entry.
UniProt P35968, 20-1356: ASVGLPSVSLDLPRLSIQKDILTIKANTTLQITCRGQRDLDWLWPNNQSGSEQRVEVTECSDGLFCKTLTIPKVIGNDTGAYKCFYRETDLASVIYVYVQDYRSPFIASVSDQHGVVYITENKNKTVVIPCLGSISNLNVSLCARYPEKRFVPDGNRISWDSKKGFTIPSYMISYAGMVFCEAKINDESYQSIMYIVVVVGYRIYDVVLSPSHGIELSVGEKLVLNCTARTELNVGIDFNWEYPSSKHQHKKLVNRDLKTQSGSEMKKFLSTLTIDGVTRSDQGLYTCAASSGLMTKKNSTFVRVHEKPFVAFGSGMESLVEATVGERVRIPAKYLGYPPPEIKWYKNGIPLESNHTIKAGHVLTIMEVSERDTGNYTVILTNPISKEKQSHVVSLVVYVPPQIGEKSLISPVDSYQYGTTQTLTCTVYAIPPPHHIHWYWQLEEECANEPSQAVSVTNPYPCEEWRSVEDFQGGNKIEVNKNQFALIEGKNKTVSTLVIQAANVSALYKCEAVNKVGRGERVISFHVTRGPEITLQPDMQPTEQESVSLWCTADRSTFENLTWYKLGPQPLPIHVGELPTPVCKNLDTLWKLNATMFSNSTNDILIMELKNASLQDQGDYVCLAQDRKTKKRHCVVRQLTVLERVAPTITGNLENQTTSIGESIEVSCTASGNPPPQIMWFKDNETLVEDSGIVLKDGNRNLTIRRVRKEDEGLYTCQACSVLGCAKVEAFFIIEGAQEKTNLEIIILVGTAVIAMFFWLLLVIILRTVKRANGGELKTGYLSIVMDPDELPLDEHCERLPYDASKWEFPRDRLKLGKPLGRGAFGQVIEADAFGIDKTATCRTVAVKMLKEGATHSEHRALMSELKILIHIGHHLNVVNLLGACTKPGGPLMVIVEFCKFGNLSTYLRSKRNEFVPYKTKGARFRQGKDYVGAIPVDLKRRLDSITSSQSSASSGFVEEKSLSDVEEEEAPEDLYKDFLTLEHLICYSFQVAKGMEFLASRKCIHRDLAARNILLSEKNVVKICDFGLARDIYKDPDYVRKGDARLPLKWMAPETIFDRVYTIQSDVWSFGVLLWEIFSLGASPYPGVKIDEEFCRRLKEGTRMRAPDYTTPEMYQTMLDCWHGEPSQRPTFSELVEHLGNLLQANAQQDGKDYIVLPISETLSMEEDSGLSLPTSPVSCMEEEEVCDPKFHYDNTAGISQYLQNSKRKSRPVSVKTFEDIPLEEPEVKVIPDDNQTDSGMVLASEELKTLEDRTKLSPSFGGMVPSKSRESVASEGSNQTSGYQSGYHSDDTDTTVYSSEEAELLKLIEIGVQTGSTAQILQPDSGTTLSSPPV

For the next assay, the system named is M6/6 cells. The experiment in a line: SRB antiproliferative assay, M6/6 (SK-OV-3 expressing Pgp). The note with it: Homo sapiens, SK-OV-3, 48 h, read-out: IC50 ± SD in M6/6 cells. On the technique in general: Sulforhodamine B stains cellular protein and so reports cell mass.

Bounds are passed on as bounds.

For the compound `COc1ccc2c(ccn2-c2nc(C)nc3oc(C)cc23)c1` [Compound 9, 4-(5-methoxy-1H-indol-1-yl)-2,6-dimethylfuro[2,3-d]pyrimidine], the IC50 on VEGFR-2 was greater than 300 nM.

For `CC(=O)O[C@H]1C(=O)[C@@]2(C)[C@H]([C@H](OC(=O)c3ccccc3)[C@]3(O)C[C@H](OC(=O)[C@H](O)[C@@H](NC(=O)c4ccccc4)c4ccccc4)C(C)=C1C3(C)C)[C@]1(OC(C)=O)CO[C@@H]1C[C@@H]2O` [Paclitaxel, reference compound], the IC50 with M6/6 cells was 1190 nM.

The values above are taken from patent US9777012B2, “Substituted furo[2,3-d]pyrimidines as multi-targeted receptor tyrosine kinase inhibitors and microtubule targeting antitumor agents” (Duquesne University of the Holy Spirit, priority 2014, dated 2017).
